Experimental data reported in ChEMBL document CHEMBL1158892, “Cationic reduction of bastadin-4 to bastadin-5. Preparation of 5-[2h]-bastadin-5 by site-specific isotopic labeling” (J Nat Prod, 2003).

The chains behind the UniProt entries cited, without tags or fusion partners. Where a name states a change or a piece, a line headed by the entry shows the natural chain unless it says otherwise.
UniProt P21817: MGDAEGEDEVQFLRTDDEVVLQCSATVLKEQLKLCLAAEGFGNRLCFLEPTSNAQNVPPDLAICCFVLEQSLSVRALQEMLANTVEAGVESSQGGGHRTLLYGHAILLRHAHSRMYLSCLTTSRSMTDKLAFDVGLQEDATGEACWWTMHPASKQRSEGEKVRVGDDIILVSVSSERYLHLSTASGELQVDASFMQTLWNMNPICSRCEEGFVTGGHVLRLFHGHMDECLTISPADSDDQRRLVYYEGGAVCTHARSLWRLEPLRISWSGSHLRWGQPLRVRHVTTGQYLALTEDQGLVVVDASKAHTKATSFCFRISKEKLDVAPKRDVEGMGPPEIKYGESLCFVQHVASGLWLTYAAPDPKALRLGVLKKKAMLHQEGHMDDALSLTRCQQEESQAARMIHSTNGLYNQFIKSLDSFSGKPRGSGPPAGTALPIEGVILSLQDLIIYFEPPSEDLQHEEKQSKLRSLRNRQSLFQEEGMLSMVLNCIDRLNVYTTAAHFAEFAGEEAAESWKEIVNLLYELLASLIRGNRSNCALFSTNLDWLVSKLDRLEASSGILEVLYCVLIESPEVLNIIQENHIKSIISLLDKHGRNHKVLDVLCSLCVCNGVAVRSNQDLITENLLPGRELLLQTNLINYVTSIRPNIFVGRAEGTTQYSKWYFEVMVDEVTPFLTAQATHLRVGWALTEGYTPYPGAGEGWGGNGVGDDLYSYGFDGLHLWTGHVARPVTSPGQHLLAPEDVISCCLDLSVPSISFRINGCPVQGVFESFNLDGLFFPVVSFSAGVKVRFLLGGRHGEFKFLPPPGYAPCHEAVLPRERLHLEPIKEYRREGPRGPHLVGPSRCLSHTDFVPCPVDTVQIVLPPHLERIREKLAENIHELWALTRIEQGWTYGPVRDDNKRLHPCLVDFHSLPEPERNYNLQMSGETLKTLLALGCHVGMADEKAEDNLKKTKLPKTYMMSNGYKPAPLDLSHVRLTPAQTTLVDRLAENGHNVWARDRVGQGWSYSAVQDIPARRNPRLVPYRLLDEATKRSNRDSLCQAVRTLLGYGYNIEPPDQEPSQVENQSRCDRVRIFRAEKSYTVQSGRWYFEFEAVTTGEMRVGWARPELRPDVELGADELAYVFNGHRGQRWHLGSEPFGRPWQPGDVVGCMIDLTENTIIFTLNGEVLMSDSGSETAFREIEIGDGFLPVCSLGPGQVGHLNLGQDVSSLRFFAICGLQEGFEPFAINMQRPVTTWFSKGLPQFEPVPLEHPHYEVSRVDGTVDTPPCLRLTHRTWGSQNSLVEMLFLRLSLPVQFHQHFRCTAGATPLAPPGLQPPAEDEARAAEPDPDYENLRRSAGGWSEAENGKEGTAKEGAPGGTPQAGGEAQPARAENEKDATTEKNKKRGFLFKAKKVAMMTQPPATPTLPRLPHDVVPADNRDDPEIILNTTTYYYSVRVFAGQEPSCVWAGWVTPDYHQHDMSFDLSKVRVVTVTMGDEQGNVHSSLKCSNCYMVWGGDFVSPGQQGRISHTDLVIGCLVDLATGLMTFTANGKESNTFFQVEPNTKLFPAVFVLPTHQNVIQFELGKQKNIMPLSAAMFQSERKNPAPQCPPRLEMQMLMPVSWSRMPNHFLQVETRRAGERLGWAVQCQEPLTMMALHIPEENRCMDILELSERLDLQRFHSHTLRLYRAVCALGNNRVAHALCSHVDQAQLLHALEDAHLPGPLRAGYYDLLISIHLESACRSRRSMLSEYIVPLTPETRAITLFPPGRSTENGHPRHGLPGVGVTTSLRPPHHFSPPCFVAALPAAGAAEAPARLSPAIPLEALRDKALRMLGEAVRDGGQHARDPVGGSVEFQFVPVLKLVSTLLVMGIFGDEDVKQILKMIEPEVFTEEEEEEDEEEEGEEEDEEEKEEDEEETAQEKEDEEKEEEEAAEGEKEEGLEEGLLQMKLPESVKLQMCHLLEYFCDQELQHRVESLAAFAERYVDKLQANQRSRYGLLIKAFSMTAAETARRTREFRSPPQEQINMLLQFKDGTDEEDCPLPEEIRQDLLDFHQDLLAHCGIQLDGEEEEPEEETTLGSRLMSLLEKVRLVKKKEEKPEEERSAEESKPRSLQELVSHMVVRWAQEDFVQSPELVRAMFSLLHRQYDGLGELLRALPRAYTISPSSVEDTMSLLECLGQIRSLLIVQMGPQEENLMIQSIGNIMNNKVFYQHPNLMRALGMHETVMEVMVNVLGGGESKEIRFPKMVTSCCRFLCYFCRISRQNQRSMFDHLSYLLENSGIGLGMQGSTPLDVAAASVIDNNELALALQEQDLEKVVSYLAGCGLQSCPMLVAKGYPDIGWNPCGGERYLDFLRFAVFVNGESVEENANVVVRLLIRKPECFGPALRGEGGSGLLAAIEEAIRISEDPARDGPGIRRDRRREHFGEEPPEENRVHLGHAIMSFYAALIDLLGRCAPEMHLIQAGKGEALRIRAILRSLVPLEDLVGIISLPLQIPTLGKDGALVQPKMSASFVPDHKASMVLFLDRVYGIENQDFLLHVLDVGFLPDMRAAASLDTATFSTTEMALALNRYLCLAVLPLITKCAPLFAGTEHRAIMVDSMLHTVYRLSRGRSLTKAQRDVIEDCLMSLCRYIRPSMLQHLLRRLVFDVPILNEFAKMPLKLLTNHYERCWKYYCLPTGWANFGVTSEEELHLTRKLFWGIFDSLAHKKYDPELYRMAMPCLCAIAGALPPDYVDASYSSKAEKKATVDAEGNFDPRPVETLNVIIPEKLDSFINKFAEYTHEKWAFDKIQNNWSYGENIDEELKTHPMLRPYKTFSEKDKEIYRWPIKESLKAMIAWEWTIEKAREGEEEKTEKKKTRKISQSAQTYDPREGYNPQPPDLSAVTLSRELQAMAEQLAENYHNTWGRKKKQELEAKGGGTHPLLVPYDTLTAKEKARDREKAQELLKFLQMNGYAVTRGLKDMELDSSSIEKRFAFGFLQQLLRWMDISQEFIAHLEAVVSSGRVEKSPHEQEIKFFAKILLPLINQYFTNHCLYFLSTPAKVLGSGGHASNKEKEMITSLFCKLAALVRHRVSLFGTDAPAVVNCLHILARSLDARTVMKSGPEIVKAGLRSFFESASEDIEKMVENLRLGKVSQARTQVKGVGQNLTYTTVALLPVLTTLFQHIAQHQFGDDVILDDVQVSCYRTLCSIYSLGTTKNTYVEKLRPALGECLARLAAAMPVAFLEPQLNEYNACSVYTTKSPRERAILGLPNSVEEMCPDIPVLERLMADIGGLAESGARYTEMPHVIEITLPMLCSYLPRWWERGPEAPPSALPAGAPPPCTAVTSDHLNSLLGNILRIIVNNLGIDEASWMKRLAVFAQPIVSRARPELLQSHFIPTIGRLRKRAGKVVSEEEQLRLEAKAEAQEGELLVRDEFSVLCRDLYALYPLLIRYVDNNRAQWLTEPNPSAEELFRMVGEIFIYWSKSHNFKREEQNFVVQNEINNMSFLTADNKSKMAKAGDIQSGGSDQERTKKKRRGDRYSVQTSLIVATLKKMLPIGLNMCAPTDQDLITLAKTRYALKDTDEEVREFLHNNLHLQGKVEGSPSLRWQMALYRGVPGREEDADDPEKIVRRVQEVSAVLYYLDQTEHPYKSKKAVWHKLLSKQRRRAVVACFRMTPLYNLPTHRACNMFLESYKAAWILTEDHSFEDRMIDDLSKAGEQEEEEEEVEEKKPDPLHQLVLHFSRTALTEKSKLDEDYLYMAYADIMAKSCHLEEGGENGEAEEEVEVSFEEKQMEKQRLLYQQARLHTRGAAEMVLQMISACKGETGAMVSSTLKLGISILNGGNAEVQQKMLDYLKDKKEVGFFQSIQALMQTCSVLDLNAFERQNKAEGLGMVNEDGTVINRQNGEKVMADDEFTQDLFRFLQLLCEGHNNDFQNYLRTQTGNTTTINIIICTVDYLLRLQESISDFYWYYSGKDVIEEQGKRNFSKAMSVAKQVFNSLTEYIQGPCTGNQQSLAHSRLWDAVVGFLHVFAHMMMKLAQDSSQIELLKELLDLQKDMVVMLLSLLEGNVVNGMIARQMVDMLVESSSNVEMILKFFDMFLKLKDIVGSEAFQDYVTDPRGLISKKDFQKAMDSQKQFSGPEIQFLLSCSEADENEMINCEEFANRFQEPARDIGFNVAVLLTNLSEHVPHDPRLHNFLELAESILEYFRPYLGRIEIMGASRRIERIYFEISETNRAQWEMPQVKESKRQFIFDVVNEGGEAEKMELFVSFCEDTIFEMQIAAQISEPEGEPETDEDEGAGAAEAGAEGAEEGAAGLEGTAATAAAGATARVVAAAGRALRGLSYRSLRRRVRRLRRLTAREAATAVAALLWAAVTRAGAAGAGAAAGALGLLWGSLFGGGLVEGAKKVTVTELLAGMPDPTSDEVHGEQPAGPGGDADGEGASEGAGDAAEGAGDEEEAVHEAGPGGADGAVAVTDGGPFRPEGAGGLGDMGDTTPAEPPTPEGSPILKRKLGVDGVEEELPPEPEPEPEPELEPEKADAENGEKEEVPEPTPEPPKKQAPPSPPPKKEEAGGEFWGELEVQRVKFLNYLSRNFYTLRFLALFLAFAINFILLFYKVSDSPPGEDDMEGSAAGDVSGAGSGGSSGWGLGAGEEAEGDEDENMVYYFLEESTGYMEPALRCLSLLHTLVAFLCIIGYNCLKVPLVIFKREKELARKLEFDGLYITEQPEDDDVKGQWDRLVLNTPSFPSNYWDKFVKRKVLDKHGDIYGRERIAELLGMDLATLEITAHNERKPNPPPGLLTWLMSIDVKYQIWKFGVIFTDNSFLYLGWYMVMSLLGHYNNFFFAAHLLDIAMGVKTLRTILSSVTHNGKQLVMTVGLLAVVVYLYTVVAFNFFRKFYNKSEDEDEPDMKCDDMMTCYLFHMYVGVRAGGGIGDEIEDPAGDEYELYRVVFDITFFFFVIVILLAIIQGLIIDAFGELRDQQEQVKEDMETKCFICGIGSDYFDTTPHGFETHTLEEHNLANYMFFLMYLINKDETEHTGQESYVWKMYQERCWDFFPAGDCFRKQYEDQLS

Each molecule was assayed against Ryanodine receptor 1 (Homo sapiens, UniProt P21817) (assay: Displacement of [3H]ryanodine from RyR1 calcium channel in sarcoplasmic reticulum assessed as calcium mobilization).

Compared with `O=C1NCCc2cc(Br)c(O)c(c2)Oc2c(Br)cc(cc2Br)CCNC(=O)/C(=N\O)Cc2cc(Br)c(O)c(c2)Oc2c(Br)cc(cc2Br)C/C1=N/O`, `O=C1N/C=C/c2ccc(c(Br)c2)Oc2cc(cc(Br)c2O)CCNC(=O)/C(=N/O)Cc2cc(Br)c(c(Br)c2)Oc2cc(cc(Br)c2O)C/C1=N\O` is 5.7-fold higher in EC50: 2.6 µM for the first, 14.7 µM for the second.

In the case of `O=C1NCCc2cc(Br)c(O)c(c2)Oc2ccc(cc2Br)[C@H](O)CNC(=O)/C(=N/O)Cc2cc(Br)c(O)c(c2)Oc2ccc(cc2Br)C/C1=N/O`, the EC50 is reported as 5.8 µM.
